Holding throughout (experiment): biochemical
What all share (assay type): binding

The target in one assay is HLA-B*4001 (Homo sapiens, UniProt P01889, A65T/A93T/A95T/D138N/D98Y/E176V/E69K/N87E/Q56L/Q94N/R180L/S121R/S35A/S48T/T167S/V36M/W171L/Y33H/Y91S). The following applies: B*4001.
The next assay deals with HLA-B*4002 (Homo sapiens, UniProt P01889, A65T/A93T/A95T/D138N/D201E/D98Y/E176V/E204Q/E69K/K202T/N87E/Q56L/Q94N/R180L/S48T/Y33H/Y91S).
Another assay deals with HLA-B*4402 (Homo sapiens, UniProt P01889, A223V/A65T/A93T/A95T/D201E/D98Y/E176V/E187L/E204Q/E69K/G107R/H137Y/K202T/L105A/L119I/N104T/N87E/Q56L/Q94N/R106L/R155S/R180D/S101N/S121R/S35A/S48T/T118I/V36M/W191S/Y140D/Y91S). The conditions noted are these: B*4402.

Like-named read-outs stand apart in the source and are kept apart here.

Consider `CC(C)C[C@H](NC(=O)[C@H](Cc1ccc(O)cc1)NC(=O)[C@H](CCC(=O)O)NC(=O)[C@H](CCC(=O)O)NC(=O)[C@H](C)N)C(=O)N[C@H](C(=O)N1CCC[C@H]1C(=O)N[C@@H](CCC(N)=O)C(=O)N[C@@H](CCC(N)=O)C(=O)NCC(=O)O)C(C)C`, for which the IC50 against HLA-B*4001 stood at 66.7 µM; at HLA-B*4002 (B*4002), 24.4 µM.
On to `C[C@H](NC(=O)[C@H](Cc1c[nH]cn1)NC(=O)[C@H](Cc1ccc(O)cc1)NC(=O)[C@H](CCC(=O)O)NC(=O)[C@@H](NC(=O)[C@H](CCC(=O)O)NC(=O)[C@@H](N)CC(=O)O)[C@@H](C)O)C(=O)N[C@@H](CC(=O)O)C(=O)NCC(=O)O`, for which the results for the IC50 against HLA-B*4001, at HLA-B*4402 and against HLA-B*4002 (B*4002) were more than 11.9 µM, more than 24.4 µM and more than 65.4 µM, respectively.
On the same counts, the results for `CC(C)[C@H](NC(=O)[C@H](CCCNC(=N)N)NC(=O)[C@H](Cc1ccccc1)NC(=O)[C@H](CCC(N)=O)NC(=O)CNC(=O)[C@@H](NC(=O)[C@H](C)NC(=O)[C@H](CCC(=O)O)NC(=O)[C@@H](N)CCC(=O)O)[C@@H](C)O)C(=O)N[C@@H](Cc1ccc(O)cc1)C(=O)O` are more than 33.3 µM, 0.029 µM and 56 µM.
As for `CC(C)C[C@H](NC(=O)[C@@H]1CCCN1C(=O)[C@H](CO)NC(=O)[C@H](CCCNC(=N)N)NC(=O)[C@@H]1CCCN1C(=O)[C@H](C)NC(=O)[C@H](CCC(=O)O)NC(=O)[C@H](CCC(=O)O)NC(=O)[C@@H](N)CCC(=O)O)C(=O)O`, the IC50 against HLA-B*4402 was 0.342 µM; against HLA-B*4002 (B*4002), 2.88 µM.
Regarding `CC(C)C[C@H](NC(=O)[C@@H]1CCCN1C(=O)[C@H](CO)NC(=O)[C@H](CCCNC(=N)N)NC(=O)[C@@H]1CCCN1C(=O)[C@H](C)NC(=O)[C@H](CCC(=O)O)NC(=O)[C@H](CCC(=O)O)NC(=O)[C@@H](N)CCC(=O)O)C(=O)N[C@@H](C)C(=O)O`, the IC50 on HLA-B*4001 is 49.5 µM; at HLA-B*4002 (B*4002), 38.9 µM.
As for `CSCC[C@H](NC(=O)[C@H](CCCNC(=N)N)NC(=O)[C@@H]1CCCN1C(=O)CNC(=O)[C@H](CCC(=O)O)NC(=O)[C@H](CCC(=O)O)NC(=O)[C@@H](N)CCC(=O)O)C(=O)N[C@@H](Cc1ccccc1)C(=O)O`, the IC50 on HLA-B*4002 (B*4002) stood at 32.1 µM.
As for `CC(C)C[C@H](NC(=O)CNC(=O)[C@H](CC(C)C)NC(=O)[C@H](C)NC(=O)[C@H](CCC(=O)O)NC(=O)CNC(=O)[C@H](CCCNC(=N)N)NC(=O)[C@H](C)NC(=O)[C@H](CCC(=O)O)NC(=O)[C@H](CC(C)C)NC(=O)CNC(=O)[C@H](CCC(=O)O)NC(=O)[C@@H](N)CCC(=O)O)C(=O)O`, the IC50 stood at 1.77 µM against HLA-B*4001 and 5.14 µM on HLA-B*4002 (B*4002).
With `CC[C@H](C)[C@H](NC(=O)[C@H](CCCCN)NC(=O)[C@H](CCC(=O)O)NC(=O)[C@@H](N)CCC(=O)O)C(=O)N[C@@H](Cc1c[nH]c2ccccc12)C(=O)N[C@@H](CCC(=O)O)C(=O)N[C@@H](CCC(=O)O)C(=O)N[C@@H](CC(C)C)C(=O)N[C@@H](CO)C(=O)N[C@@H](CCSC)C(=O)N[C@@H](CC(C)C)C(=O)O`, on HLA-B*4002 (B*4002), the IC50 came to 20.6 µM.
Consider `C[C@H](NC(=O)[C@@H](NC(=O)[C@H](CCC(N)=O)NC(=O)[C@H](CCC(N)=O)NC(=O)[C@H](CCC(=O)O)NC(=O)[C@@H](N)CCC(=O)O)[C@@H](C)O)C(=O)N[C@@H](CO)C(=O)N[C@@H](CO)C(=O)N[C@@H](CO)C(=O)N[C@@H](CO)C(=O)N[C@H](C(=O)O)[C@@H](C)O`, for which the IC50 stood at 4.04 µM on HLA-B*4001 and 41.2 µM on HLA-B*4002 (B*4002).
`CC[C@H](C)[C@H](NC(=O)[C@H](CCC(N)=O)NC(=O)[C@H](CCCNC(=N)N)NC(=O)[C@H](CC(N)=O)NC(=O)CNC(=O)[C@H](CC(=O)O)NC(=O)[C@@H](NC(=O)[C@H](CCCNC(=N)N)NC(=O)[C@H](CCC(=O)O)NC(=O)CN)C(C)C)C(=O)O`: the IC50 on HLA-B*4402 came to 3.9 µM; at HLA-B*4002 (B*4002) it was 0.369 µM.
With `N=C(N)NCCC[C@H](NC(=O)[C@H](CCC(=O)O)NC(=O)[C@@H](N)Cc1c[nH]cn1)C(=O)N[C@@H](CS)C(=O)N[C@@H](CO)C(=O)N[C@@H](CC(=O)O)C(=O)N[C@@H](CO)C(=O)N[C@@H](CC(=O)O)C(=O)NCC(=O)O`, the IC50 against HLA-B*4001 was 2.37 µM; against HLA-B*4402, 19.3 µM; against HLA-B*4002 (B*4002), 38.6 µM.
As for `CC[C@H](C)[C@H](N)C(=O)N[C@@H](CCC(=O)O)C(=O)NCC(=O)N[C@@H](CC(=O)O)C(=O)N[C@@H](CS)C(=O)N[C@@H](C)C(=O)N1CCC[C@H]1C(=O)N[C@@H](CCC(=O)O)C(=O)N[C@@H](CCC(=O)O)C(=O)N[C@@H](CCCCN)C(=O)N[C@H](C(=O)O)[C@@H](C)CC`, the figures for the IC50 against HLA-B*4001 and against HLA-B*4002 (B*4002) were 27.8 µM and 32.1 µM, respectively.
On to `CC(C)C[C@H](NC(=O)[C@H](CC(N)=O)NC(=O)CNC(=O)[C@H](CO)NC(=O)[C@H](CO)NC(=O)[C@H](CC(=O)O)NC(=O)[C@H](CCC(=O)O)NC(=O)[C@@H](N)CC(C)C)C(=O)O`, for which the IC50 against HLA-B*4402 stood at 42.8 µM; at HLA-B*4002 (B*4002), 0.362 µM.
Take `CC(C)C[C@H](NC(=O)[C@H](C)NC(=O)[C@H](CCC(=O)O)NC(=O)[C@@H](N)CC(N)=O)C(=O)N[C@@H](CCC(=O)O)C(=O)N[C@@H](CC(C)C)C(=O)N[C@@H](CCCCN)C(=O)N[C@@H](CC(=O)O)C(=O)N[C@@H](C)C(=O)O`: the IC50 against HLA-B*4002 (B*4002) is 27.6 µM.
On to `CC(C)[C@H](NC(=O)[C@H](CCCNC(=N)N)NC(=O)[C@H](Cc1ccccc1)NC(=O)[C@H](CCC(N)=O)NC(=O)CNC(=O)[C@@H](NC(=O)[C@H](C)NC(=O)[C@H](CCC(=O)O)NC(=O)[C@H](CCC(=O)O)NC(=O)[C@@H](N)CC(N)=O)[C@@H](C)O)C(=O)O`, for which the IC50 was determined as 29.1 µM against HLA-B*4001 and 22.7 µM at HLA-B*4002 (B*4002).
On the same counts, the results for `CC(C)C[C@H](NC(=O)[C@@H]1CCCN1C(=O)[C@H](CCC(=O)O)NC(=O)[C@@H](NC(=O)[C@H](CC(C)C)NC(=O)[C@H](CCC(=O)O)NC(=O)[C@@H](NC(=O)[C@H](CCC(=O)O)NC(=O)[C@@H](N)CCC(N)=O)[C@@H](C)O)C(C)C)C(=O)O` are 0.062 µM and 0.085 µM.
On the same counts, the results for `CC(C)C[C@H](NC(=O)[C@H](Cc1ccc(O)cc1)NC(=O)[C@H](CCC(=O)O)NC(=O)[C@@H]1CCCN1C(=O)[C@H](CC(N)=O)NC(=O)[C@H](CCC(=O)O)NC(=O)[C@@H](N)C(C)C)C(=O)N[C@H](C(=O)N1CCC[C@H]1C(=O)N[C@@H](CCC(N)=O)C(=O)NCC(=O)O)[C@@H](C)O` are 56.4 µM and 42.6 µM.
In the case of `CC(C)C[C@H](NC(=O)[C@@H]1CCCN1C(=O)[C@H](CCC(=O)O)NC(=O)[C@@H](N)C(C)C)C(=O)N[C@H](C(=O)N1CCC[C@H]1C(=O)N[C@@H](CO)C(=O)NCC(=O)N[C@@H](C)C(=O)O)[C@@H](C)O`, the IC50 at HLA-B*4001 was more than 9.64 µM; on HLA-B*4002 (B*4002) it was 0.011 µM.
On to `CC(C)C[C@H](NC(=O)[C@H](Cc1ccc(O)cc1)NC(=O)[C@H](CCC(=O)O)NC(=O)[C@@H](N)C(C)C)C(=O)N[C@@H](CC(=O)O)C(=O)N[C@@H](CC(=O)O)C(=O)N[C@@H](CCCNC(=N)N)C(=O)N[C@@H](CC(N)=O)C(=O)N[C@H](C(=O)O)[C@@H](C)O`, for which the values for the IC50 against HLA-B*4001 and against HLA-B*4002 (B*4002) were 36.8 µM and 35.9 µM, respectively.
As to `CC(C)C[C@H](NC(=O)[C@H](C)NC(=O)[C@H](CCCNC(=N)N)NC(=O)[C@@H]1CCCN1C(=O)CNC(=O)[C@H](Cc1c[nH]c2ccccc12)NC(=O)[C@H](CC(C)C)NC(=O)[C@H](Cc1ccccc1)NC(=O)[C@H](CCC(=O)O)NC(=O)[C@@H](N)Cc1ccc(O)cc1)C(=O)O` [YEFLWGPRAL], the IC50 against HLA-B*4002 (B*4002) came to 0.00097 µM.
With DECVGEGLACHQL, the IC50 on HLA-B*4002 (read-out: B*4002) is 3.67 µM.

The values above are taken from patent US20060079453A1, “Hla binding peptides and their uses” (priority 2002, published 2006).
